ChEMBL document CHEMBL4376854, “Investigation of the Adrenergic and Opioid Binding Affinities, Metabolic Stability, Plasma Protein Binding Properties, and Functional Effects of Selected Indole-Based Kratom Alkaloids” (J Med Chem, 2020)

Assays:
[1] = Toxicity in Sprague-Dawley rat assessed as induction of hypothermia at 0.0032 to 10 mg/kg, iv; details: in vivo
Rattus norvegicus = assay: Antinociceptive activity in Sprague-Dawley rat dosed intravenously using cumulative dosing every 5 mins until rat maxed-out on hot plate by hot plate test

For `CN(C(=O)Cc1ccccc1)[C@H]1CC[C@@]2(CCCO2)C[C@@H]1N1CCCC1`, the Activity [1] was “Toxic” and the ED50 (Rattus norvegicus) was 1.81 mg/kg.
